Binding of CDR-mutated scFvs to a peptide of the spike HR2 region

Binding partner: SARS-CoV-2 spike HR2 peptide, sequence PDVDLGDISGINAS.

Ab-14 is the parent antibody, in scFv form: VH, then three GGGGS repeats, then VL. The light chain is unchanged in all variants.
VH: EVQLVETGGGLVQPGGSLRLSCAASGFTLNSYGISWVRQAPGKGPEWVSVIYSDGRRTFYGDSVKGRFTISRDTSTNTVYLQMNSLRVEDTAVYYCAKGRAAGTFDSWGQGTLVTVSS
VL: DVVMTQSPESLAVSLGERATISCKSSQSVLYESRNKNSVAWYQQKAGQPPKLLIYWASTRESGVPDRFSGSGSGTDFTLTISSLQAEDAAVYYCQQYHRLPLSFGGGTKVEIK

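Phage display of a naive human antibody library on the peptide gave the parent. AAYL49 was designed without a model: most single CDR substitutions and a random sample of double and triple ones. The scFvs were displayed on barcoded MATa yeast, the peptide on MATalpha yeast. The frequency of each diploid, read from paired DNA barcodes, reflects how well the two displayed proteins bind. Read counts were normalised to the haploid input and turned into Kd by a linear fit to BCL2-family pairs of known affinity, for each replicate. The assay was run in three technical replicates.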

The parent's heavy chain CDRs are GFTLNSYGIS, VIYSDGRRTFYGDSVK, GRAAGTFDS; each variant's own CDRs replace them letter for letter. Every variant below is changed at R57 of the VH (sequential numbering). Each Kd is an estimate from the mating assay, the geometric mean of the replicates in which the pair was seen; lower is stronger. "nd" means that the variant was in the library but no mating with the target was seen in any replicate; the authors take this as a sign of poor binding, and no number exists.

Variant GFTLNSYVIS / VIYSDGRTTFYGDSVW / GRAAGTFDS showed nd (0 of 3 replicates).
Variant GFTLNSYGIS / NIYSDGAKTFYGDSVK / GRAAGTFDS showed 8.1 µM (1 of 3 replicates).
Variant GFTLNSYGIS / VIYSDGRGRFYGDSVK / GNAAGTFDS showed 240 nM (1 of 3 replicates).
Variant GFTLNSYGIS / VIYSDGRATFYGDSVK / PRAAGTFHS showed nd (0 of 3 replicates).
Variant GFTLNSYGIS / VIYSDGRHTDRGDSVK / GRAAGTFDS showed nd (0 of 3 replicates).
Variant GFTLNSYGIS / VIYSDGRSTFYGDSVK / GRAKGTFDS showed nd (0 of 3 replicates).
Variant GFTLNSYGIS / TIYSDGRYTFYGDSVK / GRAARTFDS showed 190 µM (2 of 3 replicates).
Variant GFTLWSYGIS / VIYSDGRDTFYGDSVK / GRAAGRFDS showed nd (0 of 3 replicates).
Variant GFTLNSYGIS / VIYSDGRDTFYGDSVK / GRATGTFDS showed 5.3 µM (1 of 3 replicates).
Variant GKTLNSYGIS / VIYSDGRHTFYGDSVK / DRAAGTFDS showed nd (0 of 3 replicates).
Variant GFTLNSYGIS / VVYSSGRKTFYGDSVK / GRAAGTFDS showed nd (0 of 3 replicates).
Variant GFTLNSYGIS / VIYSDSRFTFFGDSVK / GRAAGTFDS showed 8.9 µM (2 of 3 replicates).
Variant GFTLNSYGIS / WIYSDGRTEFYGDSVK / GRAAGTFDS showed 790 µM (1 of 3 replicates).
Variant GFTLNSYGIS / VIYSDGRFTFYGDAVK / GRAAGTFDS showed 190 nM (1 of 3 replicates).
Variant AFTLNCYGIS / VIYSDGRQTFYGDSVK / GRAAGTFDS showed 9.3 µM (3 of 3 replicates).
Variant GFTLNGYGIS / EIYSDGRNTFYGDSVK / GRAAGTFDS showed nd (0 of 3 replicates).
Variant GFTLNSYGIS / VIYSDGRCTFYGAAVK / GRAAGTFDS showed 80 µM (1 of 3 replicates).
Variant GFTLNSYGIS / VVYSLGRSTFYGDSVK / GRAAGTFDS showed nd (0 of 3 replicates).
Variant GFTLNSYGIS / VISSDGRLTFYIDSVK / GRAAGTFDS showed nd (0 of 3 replicates).
Variant GFPLNSYGIS / VIYSDGRMTFYGDSVK / GRAADTFDS showed nd (0 of 3 replicates).
Variant GFTLNSYGIS / VIYSDGRKTFYGHSVK / GRAAGTFSS showed 270 nM (3 of 3 replicates).
Variant GFTLNSYGIS / VIYSDGRITFYGDSVK / GRCAGTFDS showed 62 µM (2 of 3 replicates).
Variant VFTLNSYGIS / VIYSDGRTTFYGDSEK / GRAAGTFDS showed nd (0 of 3 replicates).
Variant GFTLNLYGIS / VIYSDGRFTFYGDSVK / GRAAGVFDS showed nd (0 of 3 replicates).
Variant GFTRNSYGIS / VIYSDGRWTFYGDSVK / GRAQGTFDS showed nd (0 of 3 replicates).
Variant GFTLNSYGIS / VIYSDGRQTFYGDSVA / GRAAKTFDS showed 2.3 µM (3 of 3 replicates).
Variant GFTLNSYGIS / VIYSDGTGTFQGDSVK / GRAAGTFDS showed nd (0 of 3 replicates).
Variant GFTLSSYGIS / VIYSDGRPTFYGDSVG / GRAAGTFDS showed 47 nM (3 of 3 replicates).
Variant GFTLNSYGKS / VIYSDGEMTFYGDSVK / GRAAGTFDS showed nd (0 of 3 replicates).
Variant GFTLNSYGIS / VPYSDGRHTFYGDSVK / GRKAGTFDS showed 2.8 µM (1 of 3 replicates).
Variant GFTLNRYGIS / VIYSDGRSTFYGDSVK / GRAAGQFDS showed nd (0 of 3 replicates).

Excerpt, the final 4 entries:

{"CDR-H1": "GFTLSSYGIS", "CDR-H2": "VIYSDGRPTFYGDSVG", "CDR-H3": "GRAAGTFDS", "Kd": "47 nM", "detected": "3 of 3"}
{"CDR-H1": "GFTLNSYGKS", "CDR-H2": "VIYSDGEMTFYGDSVK", "CDR-H3": "GRAAGTFDS", "Kd": "nd", "detected": "0 of 3"}
{"CDR-H1": "GFTLNSYGIS", "CDR-H2": "VPYSDGRHTFYGDSVK", "CDR-H3": "GRKAGTFDS", "Kd": "2.8 µM", "detected": "1 of 3"}
{"CDR-H1": "GFTLNRYGIS", "CDR-H2": "VIYSDGRSTFYGDSVK", "CDR-H3": "GRAAGQFDS", "Kd": "nd", "detected": "0 of 3"}

As a blank, each scFv also met three strains without target: over library AAYL49, 15% of these pairings were detected, typically at 11 µM and seldom below 680 nM. In this assay the parent's reference entry averaged 4.4 nM; its copy inside this library read 13 µM (one replicate of three).

Data: MIT Lincoln Laboratory AlphaSeq set, Engelhart et al. 2022, doi:10.1038/s41597-022-01779-4, as distributed in FLAb.